Assay results as given in article PMC9624268 (Translational Vision Science & Technology, 2022).
Like-named read-outs stand apart in the source and are kept apart here.

Columns and labels:
factor D = settings: read-out: KD, binding to factor D; cited from earlier work
[1] = format: in vivo; settings: Dutch Belted, rabbit, po, 15 mg/kg

Tmax ([1]; neural retina): 1 h
Tmax ([1]; plasma): 1 h
Compound: CC(=O)c1nn(CC(=O)N2C[C@H](F)C[C@H]2C(=O)Nc2cccc(Br)n2)c2ccc(-c3cnc(C)nc3)cc12 [Danicopan]
Kd (factor D): 540 pM
